Amino acid sequences for entries named in this document (tags omitted).
UniProt P31652, whole entry: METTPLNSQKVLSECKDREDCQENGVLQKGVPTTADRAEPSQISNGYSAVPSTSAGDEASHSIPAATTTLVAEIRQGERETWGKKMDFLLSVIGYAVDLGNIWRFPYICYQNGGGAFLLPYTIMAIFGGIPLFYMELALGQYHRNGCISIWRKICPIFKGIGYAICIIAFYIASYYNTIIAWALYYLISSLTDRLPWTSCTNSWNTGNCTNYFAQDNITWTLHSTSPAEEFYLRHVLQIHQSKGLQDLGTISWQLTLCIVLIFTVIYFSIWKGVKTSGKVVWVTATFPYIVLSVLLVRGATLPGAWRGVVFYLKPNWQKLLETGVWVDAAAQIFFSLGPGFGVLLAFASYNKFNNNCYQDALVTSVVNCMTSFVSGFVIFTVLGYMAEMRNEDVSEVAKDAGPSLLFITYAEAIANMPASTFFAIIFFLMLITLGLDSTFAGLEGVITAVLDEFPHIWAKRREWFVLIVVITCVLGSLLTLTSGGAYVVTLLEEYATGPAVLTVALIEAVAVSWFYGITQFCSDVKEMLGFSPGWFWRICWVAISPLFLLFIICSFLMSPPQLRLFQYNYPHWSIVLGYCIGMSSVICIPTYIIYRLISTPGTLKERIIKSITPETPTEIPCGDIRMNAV
UniProt P23977, whole entry: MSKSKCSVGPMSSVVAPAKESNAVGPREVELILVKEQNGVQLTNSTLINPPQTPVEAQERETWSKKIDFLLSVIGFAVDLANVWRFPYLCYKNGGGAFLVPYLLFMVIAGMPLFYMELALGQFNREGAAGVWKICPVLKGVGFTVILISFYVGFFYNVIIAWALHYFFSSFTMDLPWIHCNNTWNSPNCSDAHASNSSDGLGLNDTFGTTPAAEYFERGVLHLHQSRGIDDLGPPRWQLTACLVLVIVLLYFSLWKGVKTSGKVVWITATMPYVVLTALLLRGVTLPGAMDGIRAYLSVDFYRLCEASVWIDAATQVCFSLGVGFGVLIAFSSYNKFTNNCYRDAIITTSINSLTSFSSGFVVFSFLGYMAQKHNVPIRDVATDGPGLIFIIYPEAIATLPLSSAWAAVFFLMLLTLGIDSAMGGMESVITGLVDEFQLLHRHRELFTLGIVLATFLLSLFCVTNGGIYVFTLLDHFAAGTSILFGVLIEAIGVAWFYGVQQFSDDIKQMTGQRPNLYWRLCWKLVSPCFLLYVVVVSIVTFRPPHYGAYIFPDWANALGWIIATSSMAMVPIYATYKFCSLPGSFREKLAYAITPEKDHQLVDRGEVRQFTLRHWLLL

According to ChEMBL document CHEMBL1772952, “Further structure-activity relationship studies on 4-((((3S,6S)-6-benzhydryltetrahydro-2H-pyran-3-yl)amino)methyl)phenol: identification of compounds with triple uptake inhibitory activity as potential antidepressant agents” (J Med Chem, 2011):

Key:
Format in all cases: tissue-based
[1] = biological target: Sodium-dependent serotonin transporter (Rattus norvegicus, UniProt P31652); test: Inhibition of SERT in rat cerebral cortex assessed as [3H]serotonin accumulation
In short: (§1)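 Uptake of [3H]dopamine (DAT, rat striatum) or [3H]serotonin (SERT, rat cerebral cortex) was measured with at least five triplicate concentrations spaced around the IC50. IC50 came from nonlinear curve fitting and was converted to Ki by Cheng-Prusoff. Values are mean ± SEM of 3–8 independent experiments.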

[2] = biological target: Sodium-dependent dopamine transporter (Rattus norvegicus, UniProt P23977); test: Inhibition of DAT in rat striatum assessed as [3H]dopamine accumulation; in short: as §1
[3] = Inhibition of NET in rat cerebral cortex assessed as [3H]norepinephrine accumulation
In short: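 Rat cerebral cortex tissue; uptake of [3H]norepinephrine via NET measured. At least five concentrations per compound, each in triplicate, spaced evenly around the IC50. IC50 obtained by nonlinear curve fitting, then converted to Ki by Cheng-Prusoff. Values are mean ± SEM of three to eight independent experiments.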

Row | Structure (SMILES) | Ki [1] | Ki [2] | Ki [3]
1 | O[C@@H]1C[C@@H](C(c2ccccc2)c2ccccc2)OC[C@H]1NCc1ccc2[nH]ccc2c1 (single isomer, unassigned) | 25 nM |  | 
2 | COc1ccc(CN[C@H]2CC[C@@H](C(c3ccccc3)c3ccccc3)OC2)cc1 | 12.9 nM |  | 
3 | COc1ccc(CN[C@@H]2CO[C@H](C(c3ccccc3)c3ccccc3)C[C@H]2O)cc1 | 14.7 nM | 37.4 nM | 29.3 nM
